Measurements: ChEMBL document CHEMBL5512680, “Design, Synthesis, and Biological Evaluation of New 2,6,7-Substituted Purine Derivatives as Toll-like Receptor 7 Agonists for Intranasal Vaccine Adjuvants” (J Med Chem, 2024)

What was measured:
[1] = biological target: T1, Toll-like receptor 8 (Mus musculus) (UniProt P58682); assay: Agonist activity at mouse TLR8 expressed in HEK293 cells co-expressing NF-kappaB/AP-1 inducible SEAP reporter gene at 1 to 100 uM measured for 24 hrs by colorimetric analysis; format: cell-based; conditions: dose 1-100 µM
T1 sequence (whole entry): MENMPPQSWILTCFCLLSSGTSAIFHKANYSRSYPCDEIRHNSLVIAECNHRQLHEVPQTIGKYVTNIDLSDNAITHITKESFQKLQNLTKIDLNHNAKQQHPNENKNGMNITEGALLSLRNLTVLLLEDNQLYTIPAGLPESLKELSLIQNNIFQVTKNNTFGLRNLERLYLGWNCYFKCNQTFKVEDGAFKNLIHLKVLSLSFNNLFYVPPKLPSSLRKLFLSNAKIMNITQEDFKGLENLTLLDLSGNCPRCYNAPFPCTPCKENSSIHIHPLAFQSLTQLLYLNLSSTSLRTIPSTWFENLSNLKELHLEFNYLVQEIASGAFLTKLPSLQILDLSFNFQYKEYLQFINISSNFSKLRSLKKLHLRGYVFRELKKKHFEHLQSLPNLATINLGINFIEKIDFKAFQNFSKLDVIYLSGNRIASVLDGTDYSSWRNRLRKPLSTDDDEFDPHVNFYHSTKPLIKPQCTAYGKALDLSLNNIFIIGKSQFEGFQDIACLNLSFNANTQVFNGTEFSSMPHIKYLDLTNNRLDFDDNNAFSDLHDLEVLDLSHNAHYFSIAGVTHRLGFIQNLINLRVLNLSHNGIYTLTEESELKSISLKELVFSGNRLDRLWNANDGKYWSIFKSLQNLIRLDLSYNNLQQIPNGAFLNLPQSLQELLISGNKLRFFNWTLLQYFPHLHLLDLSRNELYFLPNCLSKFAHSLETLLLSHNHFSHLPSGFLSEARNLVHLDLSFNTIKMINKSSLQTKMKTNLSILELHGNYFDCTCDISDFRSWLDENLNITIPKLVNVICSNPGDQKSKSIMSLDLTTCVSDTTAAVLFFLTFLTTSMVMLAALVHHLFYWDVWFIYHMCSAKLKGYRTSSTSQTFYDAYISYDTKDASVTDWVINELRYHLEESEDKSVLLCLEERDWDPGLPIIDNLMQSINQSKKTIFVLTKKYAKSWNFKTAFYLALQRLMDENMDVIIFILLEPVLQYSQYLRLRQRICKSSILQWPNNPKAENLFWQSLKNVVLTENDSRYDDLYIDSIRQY

[2] = biological target: T2, Toll-like receptor 7 (Mus musculus) (UniProt P58681); assay: Agonist activity at mouse TLR7 expressed in HEK293 cells co-expressing NF-kappaB/AP-1 inducible SEAP reporter gene at 3.7 uM measured for 24 hrs by colorimetric analysis relative to control; format: cell-based
T2 sequence (whole entry): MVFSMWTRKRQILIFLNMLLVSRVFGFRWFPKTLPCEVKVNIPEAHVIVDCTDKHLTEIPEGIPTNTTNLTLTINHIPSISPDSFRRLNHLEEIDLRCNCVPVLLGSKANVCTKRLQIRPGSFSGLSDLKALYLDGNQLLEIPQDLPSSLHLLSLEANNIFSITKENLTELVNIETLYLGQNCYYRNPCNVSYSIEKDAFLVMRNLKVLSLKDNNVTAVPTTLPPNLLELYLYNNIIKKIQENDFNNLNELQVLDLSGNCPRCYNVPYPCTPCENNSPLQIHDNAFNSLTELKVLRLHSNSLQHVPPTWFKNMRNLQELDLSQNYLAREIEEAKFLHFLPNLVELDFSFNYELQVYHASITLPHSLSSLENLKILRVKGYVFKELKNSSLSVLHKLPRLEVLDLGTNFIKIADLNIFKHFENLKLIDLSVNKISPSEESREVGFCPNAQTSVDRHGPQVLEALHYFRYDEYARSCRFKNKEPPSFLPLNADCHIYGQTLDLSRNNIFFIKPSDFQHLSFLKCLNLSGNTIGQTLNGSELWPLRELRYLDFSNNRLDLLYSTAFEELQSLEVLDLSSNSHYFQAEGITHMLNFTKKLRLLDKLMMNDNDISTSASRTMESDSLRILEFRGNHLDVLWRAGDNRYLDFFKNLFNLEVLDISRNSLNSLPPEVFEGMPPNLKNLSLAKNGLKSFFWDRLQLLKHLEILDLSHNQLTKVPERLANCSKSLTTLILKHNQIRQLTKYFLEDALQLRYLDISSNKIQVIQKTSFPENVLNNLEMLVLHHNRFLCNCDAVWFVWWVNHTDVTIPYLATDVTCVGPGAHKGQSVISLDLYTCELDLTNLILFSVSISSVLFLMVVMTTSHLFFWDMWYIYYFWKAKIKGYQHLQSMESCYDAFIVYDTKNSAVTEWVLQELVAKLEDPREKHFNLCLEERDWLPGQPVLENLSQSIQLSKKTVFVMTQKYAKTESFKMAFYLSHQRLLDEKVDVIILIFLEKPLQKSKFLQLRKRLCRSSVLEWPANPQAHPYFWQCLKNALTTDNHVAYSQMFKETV

Row | Emax [2] [%] | Compound | Activity [1]
1 | – | CCCCNc1nc(N)nc2ncn(Cc3ccc(CN(CC)CC)cc3OC)c12 | inactive
2 | 0.633 | CCOCc1nc2c(N)nc3ccccc3c2n1CC(C)(C)C | –

Activity calls are given as the source filed them. The rule behind the calls is not given here.
